Data from ChEMBL document CHEMBL1135518 (J Med Chem, 2002).

By UniProt entry, the sequences of proteins in these tests, tags left out.
UniProt P14842, whole entry: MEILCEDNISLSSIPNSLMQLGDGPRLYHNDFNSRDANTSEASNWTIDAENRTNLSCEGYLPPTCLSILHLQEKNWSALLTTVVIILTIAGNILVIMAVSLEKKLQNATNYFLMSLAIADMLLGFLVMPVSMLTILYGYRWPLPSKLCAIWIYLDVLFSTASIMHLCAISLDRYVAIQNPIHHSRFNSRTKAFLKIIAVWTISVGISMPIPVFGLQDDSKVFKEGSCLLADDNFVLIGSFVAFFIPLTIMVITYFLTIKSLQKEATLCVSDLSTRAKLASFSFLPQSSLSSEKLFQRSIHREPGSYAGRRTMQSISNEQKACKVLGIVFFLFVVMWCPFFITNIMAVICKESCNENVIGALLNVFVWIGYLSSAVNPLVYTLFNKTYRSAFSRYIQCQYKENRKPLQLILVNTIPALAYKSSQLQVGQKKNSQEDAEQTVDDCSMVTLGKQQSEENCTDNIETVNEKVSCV
UniProt P61169, whole entry: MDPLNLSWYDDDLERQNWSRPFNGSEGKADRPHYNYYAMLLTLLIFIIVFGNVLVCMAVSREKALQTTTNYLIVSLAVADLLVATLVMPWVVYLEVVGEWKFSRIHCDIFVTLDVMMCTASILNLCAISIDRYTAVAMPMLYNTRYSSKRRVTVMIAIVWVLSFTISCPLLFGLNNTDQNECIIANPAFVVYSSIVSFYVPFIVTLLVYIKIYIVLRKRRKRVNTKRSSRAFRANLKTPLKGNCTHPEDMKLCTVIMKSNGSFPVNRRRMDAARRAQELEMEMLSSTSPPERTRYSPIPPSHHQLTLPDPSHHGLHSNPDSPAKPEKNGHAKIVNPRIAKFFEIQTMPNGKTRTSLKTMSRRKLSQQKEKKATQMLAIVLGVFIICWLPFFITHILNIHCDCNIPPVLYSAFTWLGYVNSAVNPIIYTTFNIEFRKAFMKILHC

Key:
[1] = biological target: 5-hydroxytryptamine receptor 2A (Rattus norvegicus, UniProt P14842); experiment: The binding affinity at 5-hydroxytryptamine 2A receptor was determined using [3H]ketanserin
D(2) dopamine receptor = D(2) dopamine receptor (Rattus norvegicus, UniProt P61169); experiment: The binding affinity at the Dopamine receptor D2 determined using [3H]spiperone

Structure (SMILES) | IC50 [1] | Ki (D(2) dopamine receptor)
CN1CCN2c3ncccc3Cc3ccccc3C2C1 (racemic) [MIRTAZAPINE] | 2 nM | –
CN1CCN2c3ccccc3Cc3ccccc3C2C1 (racemic) [MIANSERIN] | – | 1000 nM
